Only a part is listed here, and it is no random draw. The source made the active and inactive calls.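 Rule for the calls: active = percent inhibition above a per-plate cutoff, the plate mean of test compounds plus 3 SD (cut at about 30% in these data); inactive = the rest.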
Biological target: Female germline-specific tumor suppressor gld-1 (Caenorhabditis elegans) (UniProt Q17339)
Assay: GLD-1/TGE RNA complex disruptors, primary screen, biochemical, fluorescence polarization (AID 2280);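 note: 0% = DMSO wells with GLD-1 and probe and 100% = wells lacking GLD-1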
Settings: purified GLD-1 + fluorescein TGE RNA, at 5.96 µM, stronger effect = higher value

The chains behind the UniProt entries cited, without tags or fusion partners.
UniProt Q17339, whole entry: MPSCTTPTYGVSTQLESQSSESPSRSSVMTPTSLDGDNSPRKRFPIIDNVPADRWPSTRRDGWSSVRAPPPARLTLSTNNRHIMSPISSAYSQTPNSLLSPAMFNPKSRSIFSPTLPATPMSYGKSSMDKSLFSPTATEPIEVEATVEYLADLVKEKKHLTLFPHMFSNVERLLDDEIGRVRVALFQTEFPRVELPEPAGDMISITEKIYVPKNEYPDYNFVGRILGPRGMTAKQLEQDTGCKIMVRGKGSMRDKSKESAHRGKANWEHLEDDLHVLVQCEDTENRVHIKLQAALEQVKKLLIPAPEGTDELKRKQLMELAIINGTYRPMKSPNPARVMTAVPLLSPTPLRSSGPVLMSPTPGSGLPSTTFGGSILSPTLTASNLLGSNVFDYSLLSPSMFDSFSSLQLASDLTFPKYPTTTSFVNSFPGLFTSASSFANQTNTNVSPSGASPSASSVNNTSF

Compound | inhibition
COc1ccccc1OP(C)(=O)Nc1ccc(C)cc1 (stereo unspecified) | inactive: 10.4%
